Data reported in PubChem BioAssay AID1468 (National Center for Advancing Translational Sciences (NCATS), 2008).
This is a selection; strong and weak results do not stand in their true shares. Inconclusive results are not listed. Calls of active or inactive are those of the source. The call rests on the fitted dose curve; in most records, active means well fitted inhibition curve with a large enough effect; inconclusive means small, poorly fitted or top-dose-only effect, or effect the other way; inactive means flat fitted curve, though single readings scatter.

By UniProt entry, the sequences of proteins in these tests, tags left out. Residues count along the entry.
UniProt P10636, 561-689 P618L limits assumed: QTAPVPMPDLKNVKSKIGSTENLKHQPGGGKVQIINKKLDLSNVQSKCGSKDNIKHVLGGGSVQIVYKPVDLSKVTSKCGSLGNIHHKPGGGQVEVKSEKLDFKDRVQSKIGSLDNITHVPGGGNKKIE

Target: Microtubule-associated protein tau (Homo sapiens) (UniProt P10636)
Assay: qHTS for Inhibitors of Tau Fibril Formation, Fluorescence Polarization; further: nearly all actives have a fitted effect of over 55% in size
Conditions: K18 P301L tau heparin fibrillization, Alexa594 FP, 6 h; at 57.7 µM (top of the series)
From the text: NIH Molecular Libraries Probe Production Network [MLPCN]
NIH Chemical Genomics Center [NCGC]
Assay Provider: Carlo Ballatore, University of Pennsylvania
The microtubule-associated protein tau is an abundant protein in the axons of neurons that stabilizes microtubules. With its ability to modulate microtubule dynamics, tau contributes directly or indirectly, to key structural and regulatory cellular functions. Particularly important is the influence tau exerts on axonal transport, which allows signaling molecules, trophic factors and other essential cellular constituents to travel along the axons. Under pathological conditions, tau becomes sequestered into insoluble aggregates called neurofibrillary tangles. This phenomenon is believed to have pathological consequences by promoting axonal transport deficits that ultimately lead to synaptic dysfunction and neuronal loss. […]
For screening, 2 uL/well human K18 P301L (15 uM unlabeled and 0.24 uM Alexa 594-labeled tau final concentrations) in reagent buffer (100 mM sodium acetate pH 7) was dispensed into black solid 1536-well plates (Grenier) using a solenoid-based dispenser. […] After a 1 hr ambient incubation, the plates were read by an Envision (Perkin Elmer) to monitor Alexa 594 FP (555 nm excitation and 632 nm emission). […]
On the % scale 0 is the no-effect control and ±100 the full control effect.

Structure (SMILES)	activity, negative = inhibition
CN(CCCl)CCCl	inactive: -8.95%
